The experiment addresses Sigma non-opioid intracellular receptor 1 (Homo sapiens, UniProt Q99720). Put plainly: Displacement of [3H](+)-pentazocine from sigma 1 opioid receptor in human Jurkat cells by scintillation counting. It is filed as cell-based. On the technique in general: Displacement assays read how much labelled ligand stays bound in the presence of the test substance.

The chains behind the UniProt entries cited, without tags or fusion partners.
UniProt Q99720, whole entry: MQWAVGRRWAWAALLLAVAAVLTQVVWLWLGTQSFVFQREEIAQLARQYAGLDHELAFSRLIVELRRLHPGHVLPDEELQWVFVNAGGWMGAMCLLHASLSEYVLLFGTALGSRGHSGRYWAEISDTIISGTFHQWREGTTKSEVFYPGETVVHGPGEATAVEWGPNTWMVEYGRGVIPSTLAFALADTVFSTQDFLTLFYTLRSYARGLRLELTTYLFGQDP

This passage reports IC50 results from ChEMBL document CHEMBL1156252, “Sigma-1 ligands: Tic-hydantoin as a key pharmacophore” (Eur J Med Chem, 2010).

`CN(CCCN1C(=O)[C@H]2Cc3ccccc3CN2C1=O)Cc1ccccc1` returned an IC50 of 1000 nM.
The value for `CN(CCCN1C(=O)[C@@H]2Cc3ccccc3CN2C1=O)Cc1ccccc1` was 650 nM.

As a reminder, the IC50 is the concentration needed to halve the response being measured. The low end stands for higher potency, the high end for lower potency.
